The list shows a part of the results, in another mix than the full data. Active and inactive are the calls of the source. Rule for the calls: active = hit-call score of the fitted dose curve at least 0.9, where 1 is the maximum; inactive = score below 0.9.
Tests used:
Details in all cases: actives raise or lower the signal; mRNA level, 48 h
[1] = read-out: Glutamate-cysteine ligase catalytic (GCLC), GCLC (gene 2729); assay: LTEA_HepaRG_GCLC: Life Technologies and Expression Analysis (LTEA) Assay for Glutamate-cysteine ligase catalytic (GCLC) using HepaRG (AID 2283498)
In short: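 Differentiated human HepaRG cells, plated 48 h then switched to serum-free induction medium, were exposed in duplicate for 48 h to 8 half-log concentrations topping at 100 uM in 0.5% DMSO. GCLC mRNA was quantified by qRT-PCR against ACTB, GAPDH and POLR2A.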

By UniProt entry, the sequences of proteins in these tests, tags left out.
UniProt Q16665, whole entry: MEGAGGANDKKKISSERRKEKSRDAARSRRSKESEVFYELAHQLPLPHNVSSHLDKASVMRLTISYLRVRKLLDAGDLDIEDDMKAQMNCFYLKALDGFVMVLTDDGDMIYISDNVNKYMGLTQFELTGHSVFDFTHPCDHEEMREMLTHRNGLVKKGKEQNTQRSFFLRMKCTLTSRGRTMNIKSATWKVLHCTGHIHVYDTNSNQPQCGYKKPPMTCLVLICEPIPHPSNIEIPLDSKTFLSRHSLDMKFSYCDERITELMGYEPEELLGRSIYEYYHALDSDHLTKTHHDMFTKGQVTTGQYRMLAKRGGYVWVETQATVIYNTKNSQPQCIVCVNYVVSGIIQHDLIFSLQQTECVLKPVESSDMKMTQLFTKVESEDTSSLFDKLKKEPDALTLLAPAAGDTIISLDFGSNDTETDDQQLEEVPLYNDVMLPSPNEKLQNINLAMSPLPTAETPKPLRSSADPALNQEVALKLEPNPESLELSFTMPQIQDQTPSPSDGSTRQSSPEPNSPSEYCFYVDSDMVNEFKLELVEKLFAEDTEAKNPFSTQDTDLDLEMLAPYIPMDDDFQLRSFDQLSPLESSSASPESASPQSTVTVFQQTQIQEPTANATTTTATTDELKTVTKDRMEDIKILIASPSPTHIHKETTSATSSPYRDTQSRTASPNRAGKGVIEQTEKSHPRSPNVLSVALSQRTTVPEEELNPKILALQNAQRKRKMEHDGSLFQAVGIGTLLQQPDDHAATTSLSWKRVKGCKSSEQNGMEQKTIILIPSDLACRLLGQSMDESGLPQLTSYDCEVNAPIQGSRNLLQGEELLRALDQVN

[2] = read-out: growth arrest and DNA damage 45 (GADD45G), GADD45G (gene 10912); assay: LTEA_HepaRG_GADD45G: Life Technologies and Expression Analysis (LTEA) Assay for growth arrest and DNA damage 45 (GADD45G) using HepaRG (AID 2283499)
In short: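 Human hepatic HepaRG line treated 48 h with chemicals (eight concentrations, half-log steps from 100 uM); transcript induction or repression of GADD45G scored by qRT-PCR versus DMSO vehicle.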

[3] = read-out: Glutamate-cysteine ligase regulatory (GCLM), GCLM (gene 2730); assay: LTEA_HepaRG_GCLM: Life Technologies and Expression Analysis (LTEA) Assay for Glutamate-cysteine ligase regulatory (GCLM) using HepaRG (AID 2283500)
In short: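 Differentiated human HepaRG cells exposed 48 h in serum-free induction medium to 8-point half-log concentrations (top 100 uM, 0.5% DMSO), in duplicate. GCLM mRNA quantified by qRT-PCR, normalized to ACTB, GAPDH, POLR2A; bidirectional fitting versus DMSO.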

[4] = read-out: Glutathione S-transferase M3 (GSTM3), GSTM3 (gene 2947); assay: LTEA_HepaRG_GSTM3: Life Technologies and Expression Analysis (LTEA) Assay for Glutathione S-transferase M3 (GSTM3) using HepaRG (AID 2283501)
In short: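 Changes in GSTM3 expression, an oxidative-stress marker, were scored by bidirectional curve fitting against 0.5% DMSO vehicle. Human HepaRG cultures received chemicals for 48 h in duplicate, highest concentration 100 uM with half-log dilutions.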

[5] = read-out: Heat shock 70 kDa protein 1 (HSPA1A), gene 3303; assay: LTEA_HepaRG_HSPA1A: Life Technologies and Expression Analysis (LTEA) Assay for Heat shock 70 kDa protein 1 (HSPA1A) using HepaRG (AID 2283502)
In short: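 Differentiated human HepaRG cells in serum-free induction medium were exposed in duplicate for 48 h to eight concentrations (top 100 uM, half-log steps, 0.5% DMSO). HSPA1A mRNA was quantified by qRT-PCR, normalized to ACTB, GAPDH and POLR2A, and fitted bidirectionally against DMSO.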

[6] = read-out: Hypoxia-inducible factor 1-alpha (Homo sapiens) (UniProt Q16665); assay: LTEA_HepaRG_HIF1A: Life Technologies and Expression Analysis (LTEA) Assay for Hypoxia-inducible factor 1 (HIF1A) Trancription factor using HepaRG (AID 2283503)
In short: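 HepaRG, 48 h exposure, 8-pt half-log series from 100 uM, 0.5% DMSO vehicle, duplicates. Readout: HIF1A transcript by qRT-PCR (Fluidigm array), housekeeping-normalised. Bidirectional curve fit vs DMSO baseline.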

[7] = read-out: 3-Hydroxy-3-Methylglutaryl-CoA Synthase 2 (HMGCS2), HMGCS2 (gene 3158); assay: LTEA_HepaRG_HMGCS2: Life Technologies and Expression Analysis (LTEA) Assay for 3-Hydroxy-3-Methylglutaryl-CoA Synthase 2 (HMGCS2) using HepaRG (AID 2283504)
In short: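 Expression of HMGCS2 in human HepaRG liver cells is measured by qRT-PCR 48 h after dosing (highest 100 uM, half-log series, 0.5% DMSO). Values come from bidirectional concentration-response fitting with DMSO as baseline.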

[8] = read-out: HGF (gene 3082); assay: LTEA_HepaRG_HGF: Life Technologies and Expression Analysis (LTEA) Assay for Hepatocyte Growth Facto (HGF) using HepaRG (AID 2283505)
In short: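 Gain or loss of HGF mRNA in human HepaRG liver cells after 48 h chemical exposure; eight concentrations up to 100 uM with 0.5% DMSO vehicle, quantified by TaqMan qRT-PCR.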

[9] = read-out: Insulin Like Growth Factor 1 (IGF1), IGF1 (gene 3479); assay: LTEA_HepaRG_IGF1: Life Technologies and Expression Analysis (LTEA) Assay for Insulin Like Growth Factor 1 (IGF1) using HepaRG (AID 2283506)
In short: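 Differentiated human HepaRG cells were dosed for 48 h in serum-free induction medium with 0.5% DMSO, eight half-log concentrations up to 100 uM, in duplicate. IGF1 mRNA was quantified by qRT-PCR normalized to ACTB, GAPDH, POLR2A; bidirectional fitting versus DMSO.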

[10] = read-out: Intercellular Adhesion Molecule 1 (ICAM1), ICAM1 (gene 3383); assay: LTEA_HepaRG_ICAM1: Life Technologies and Expression Analysis (LTEA) Assay for Intercellular Adhesion Molecule 1 (ICAM1) using HepaRG (AID 2283507)
In short: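 Gain or loss of transcript in HepaRG hepatic cells is quantified by qRT-PCR after 48 h chemical exposure (up to 100 uM, half-log steps), with DMSO as baseline.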

[11] = read-out: Insulin-like growth factor-binding protein 1 (IGFBP1), IGFBP1 (gene 3484); assay: LTEA_HepaRG_IGFBP1: Life Technologies and Expression Analysis (LTEA) Assay for Insulin-like growth factor-binding protein 1 (IGFBP1) using HepaRG (AID 2283508)
In short: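 mRNA induction or loss was quantified by qRT-PCR after 48 h chemical exposure of human HepaRG cells, with 0.5% DMSO as vehicle and baseline. Concentration-response over eight points up to 100 uM.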

[12] = read-out: Interleukin 6 (IL6), IL6 (gene 3569); assay: LTEA_HepaRG_IL6: Life Technologies and Expression Analysis (LTEA) Assay for Interleukin 6 (IL6) using HepaRG (AID 2283509)
In short: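 Differentiated human HepaRG cells, plated 48 h then switched to serum-free induction medium, were exposed in duplicate for 48 h to eight half-log concentrations up to 100 uM in 0.5% DMSO. IL6 mRNA measured by qRT-PCR, normalized to ACTB/GAPDH/POLR2A.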

[13] = read-out: Interleukin 6 Receptor (IL6R), IL6R (gene 3570); assay: LTEA_HepaRG_IL6R: Life Technologies and Expression Analysis (LTEA) Assay for Interleukin 6 Receptor (IL6R) using HepaRG (AID 2283510)
In short: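 Differentiated human HepaRG cells, plated 48 h then switched to serum-free induction medium, were dosed in duplicate for 48 h at eight half-log concentrations up to 100 uM in 0.5% DMSO. IL6R mRNA quantified by qRT-PCR, normalized to ACTB/GAPDH/POLR2A; bidirectional fit versus DMSO.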

[14] = read-out: Potassium channel subfamily K member 1 (KCNK1), KCNK1 (gene 3775); assay: LTEA_HepaRG_KCNK1: Life Technologies and Expression Analysis (LTEA) Assay for Potassium channel subfamily K member 1 (KCNK1) using HepaRG (AID 2283511)
In short: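 Differentiated human HepaRG cells in serum-free induction medium were exposed in duplicate for 48 h to 8 half-log concentrations up to 100 uM in 0.5% DMSO. KCNK1 mRNA was measured by TaqMan qRT-PCR, normalized to ACTB, GAPDH and POLR2A, and fitted bidirectionally versus DMSO.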

[15] = read-out: Keratin 19 (KRT19), KRT19 (gene 3880); assay: LTEA_HepaRG_KRT19: Life Technologies and Expression Analysis (LTEA) Assay for Keratin 19 (KRT19) using HepaRG (AID 2283512)
[16] = read-out: JUN Transcription Factor, JUN (gene 3725); assay: LTEA_HepaRG_JUN: Life Technologies and Expression Analysis (LTEA) Assay for JUN Transcription Factor using HepaRG (AID 2283513)
In short: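 Differentiated HepaRG cells were exposed to chemicals for 48 h in serum-free induction medium, 8 concentrations from 100 uM in half-log steps, 0.5% DMSO vehicle, in duplicate. JUN mRNA was quantified by TaqMan qRT-PCR, normalized to ACTB, GAPDH, POLR2A.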

[17] = read-out: Lipase C (LIPC), LIPC (gene 3990); assay: LTEA_HepaRG_LIPC: Life Technologies and Expression Analysis (LTEA) Assay for Lipase C (LIPC) using HepaRG (AID 2283514)
In short: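 Differentiated human HepaRG cells in serum-free induction medium were exposed in duplicate for 48 h to eight concentrations (top 100 uM, half-log steps, 0.5% DMSO). LIPC mRNA was quantified by TaqMan qRT-PCR, normalized to ACTB, GAPDH and POLR2A, with bidirectional fitting versus DMSO.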

[18] = read-out: Lipoprotein lipase (LPL), LPL (gene 4023); assay: LTEA_HepaRG_LPL: Life Technologies and Expression Analysis (LTEA) Assay for Lipoprotein lipase (LPL) using HepaRG (AID 2283515)
In short: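 Differentiated human HepaRG cells in serum-free induction medium were exposed in duplicate for 48 h to eight half-log concentrations (top 100 uM) in 0.5% DMSO. LPL mRNA was quantified by TaqMan qRT-PCR, normalized to ACTB, GAPDH and POLR2A.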

[19] = read-out: MicroRNA 122 (MIR122), gene 406906; assay: LTEA_HepaRG_MIR122: Life Technologies and Expression Analysis (LTEA) Assay for MicroRNA 122 (MIR122) using HepaRG (AID 2283516); note: the transcript read is the microRNA miR-122
In short: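 Differentiated human HepaRG cells were exposed 48 h in serum-free induction medium to eight half-log concentrations (top 100 uM, 0.5% DMSO). Transcript level was measured by TaqMan qRT-PCR, normalized to ACTB, GAPDH and POLR2A, and fitted bidirectionally versus DMSO.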

[20] = read-out: matrix metalloproteinase-10 (MMP10), MMP10 (gene 4319); assay: LTEA_HepaRG_MMP10: Life Technologies and Expression Analysis (LTEA) Assay for matrix metalloproteinase-10 (MMP10) using HepaRG (AID 2283517)
In short: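 HepaRG, collagen I, ~100,000 cells/well; serum-free induction medium; 48 h exposure, duplicate, 8-pt half-log to 100 uM, 0.5% DMSO. Readout: TaqMan qRT-PCR, normalized to ACTB/GAPDH/POLR2A; bidirectional fit vs DMSO.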

Measured: outcome

Cc1ccc([N+](=O)[O-])cc1[N+](=O)[O-]
inactive: all assays above

Cc1c([N+](=O)[O-])cccc1[N+](=O)[O-]
inactive: all assays above

Cc1cccc([N+](=O)[O-])c1[N+](=O)[O-]
inactive: all assays above

O=[N+]([O-])c1cccc([N+](=O)[O-])c1
inactive: all assays above

CC(C)OP(C)(=O)OC(C)C
inactive: all assays above

— PubChem BioAssay (EPA / NIEHS)
